This assay deals with T1, 4-galactosyl-N-acetylglucosaminide 3-alpha-L-fucosyltransferase 9 (Homo sapiens) (UniProt Q9Y231).
T1 sequence (whole entry): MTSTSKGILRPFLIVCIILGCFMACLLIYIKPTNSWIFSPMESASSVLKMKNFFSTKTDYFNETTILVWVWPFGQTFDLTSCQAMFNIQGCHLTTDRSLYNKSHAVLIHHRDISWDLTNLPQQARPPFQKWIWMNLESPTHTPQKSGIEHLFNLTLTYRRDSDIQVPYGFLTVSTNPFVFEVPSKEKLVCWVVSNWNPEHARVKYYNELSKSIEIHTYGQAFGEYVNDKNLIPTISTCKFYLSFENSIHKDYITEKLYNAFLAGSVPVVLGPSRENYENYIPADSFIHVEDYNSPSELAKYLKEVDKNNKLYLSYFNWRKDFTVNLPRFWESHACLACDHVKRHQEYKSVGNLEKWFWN
Briefly: Inhibition of human recombinant alpha1,3-fucosyltransferase 9 using GDP-[14C]-fucose preincubated for 30 mins by liquid scintillation counting. The arrangement: concentration or dose not given beside the values.

The structures appear in SMILES notation. A value given as a limit tells only on which side of the number the result lay.

A word on the inhibition: it is how much of the control response was suppressed. For `Nc1nc2c(ncn2[C@@H]2O[C@H](COP(=O)(O)OP(=O)(O)O)[C@@H](O)[C@H]2O)c(=O)[nH]1`, the inhibition was less than 75%.
